These are literature values, as cited in patent US11571373B2, “Skin care preparations for babies” (priority 2015, dated 2023).

The conditions of data set [1]: species and route not given.
In data set [2] the test system is mouse.
Data set [3] concerns rat.

As to Tocopherol, the “The actual or estimated LD50 value” in data set [1] is listed as 7000 mg/kg body weight. For the same substance, in data set [2], the “LD50 (oral) (mouse)” value is greater than 25 mL/kg and the “Oral LD50 value (mouse)” value is recorded as 50,000 mg/kg. The “LD50 (dermal) (rat)” value in data set [3] was > 3,000 mg/kg.
